From patent publication US20260382572A1, “TREATMENT OF FRONTOTEMPORAL DEMENTIA OR FRONTOTEMPORAL LOBAR DEMENTIA” (published 2026)
Values joined by “and” are separate entries in the source; they are usually repeats but may differ in a detail not shown here. Equal entries are not always repeated.

Columns and labels:
brain microglia (Iba-1) = assay: LPS-induced microgliosis in mouse brain (Iba-1 immunofluorescence); settings: 20 mg·kg^−1 i.p.; 4 and 24 h after LPS
Procedure: FIG. 4. Compound 1 reverts brain microgliosis triggered by LPS. Representative images of brain microglia 4 h and 24 h after the proinflammatory stimuli (A). Mean intensity of IBA-1 per cell 4 h (n=10) and 24 h (n=7, except n=6 LPS+Compound 1) after LPS injection (B).
(§1) Immunofluorescence labelling in in vitro and in vivo samples was performed as described in [Luengo, Enrique et al. “Implication of type 4 NADPH oxidase (NOX4) in tauopathy.” Redox biology vol. 49 (2022): 102210. doi:10.1016/j.redox.2021.102210].
Example 2.3.1. Treatment with Compound 1 reduces LPS-induced cytokine expression and release in mouse brain. Mice were treated i.p. with a daily dose of 20 mg·kg^−1 of Compound 1 for 4 consecutive days. On the last day, LPS (0.5 mg·kg^−1) was injected i.p. one h after the compound. Thereafter, behavioural, and biochemical outcomes were analysed at different time points.
Example 2.3.2. Treatment with Compound 1 reduces LPS-induced microgliosis in mouse brain. […] Microgliosis was evaluated using Iba-1 as a microglial marker in immunofluorescence experiments 4 h and 24 h after the inflammatory stimuli (LPS). The mean fluorescence intensity of Iba-1 per cell in mice treated with LPS, mainly 4 h after LPS, was almost doubled respect saline condition; this increase was restored to saline levels in mice treated with Compound 1 both at 4 and 24 h (FIG. 4).

LPS treated mice = assay: LPS-induced sickness behaviour: novel object recognition test; settings: 20 mg·kg^−1 i.p.; compared to vehicle-LPS treated animals
Procedure: FIG. 5. Sub-chronical Compound 1 administration improves behavioural parameters in LPS treated mice. Compound 1 (20 mg·kg^−1) was injected once a day via i.p. four days before the i.p. LPS (0.5 mg·kg^−1) administration, thereafter behavioural tests were conducted. (A) Mice weight change (T0 and T24: saline n=17, LPS n=17, LPS+Compound 1 n=19, T4 and T8 saline n=8, LPS n=7, LPS+Compound 1 n=8). (B) Locomotion activity measured by line crossings of an imaginary grid. (C) Scheme of NOR test. (D) Discrimination index (DI) of the mice studied: saline (n=16), LPS (n=9) and LPS+Compound 1 (n=13).
The LPS in vivo model was induced, sickness behaviour evaluated (locomotion test and novel object recognition test) and cytokines measured by qPCR as described by [Fernindez-Mendivil, Cristina et al. “Protective role of microglial HO-1 blockade in aging: Implication of iron metabolism.” Redox biology vol. 38 (2021): 101789. doi:10.1016/j.redox.2020.101789]. The panel of mouse cytokines, chemokines, and growth factors were measured by Luminex xMAP technology for multiplexed quantification at Evetechnologies (https://www.evetechnologies.com/)
Example 2.3.1. Treatment with Compound 1 reduces LPS-induced cytokine expression and release in mouse brain. […] Thereafter, behavioural, and biochemical outcomes were analysed at different time points.

[1] = test system: hyperphosphorylated tau in primary cultures of neurons expressing human tau with P301L mutation; assay: Hyperphosphorylated tau (AT8) in primary neuronal cultures treated with AAV-hTauP301L; settings: added every other day for 8 days, compound 1 at 30 μM
Text: (§2) FIG. 6. Compound 1 reduces hyperphosphorylated tau species and tau seeding in vitro. Compound 1 reduces hyperphosphorylated tau levels (AT8) in primary neuronal cultures of mice after 8 days of AVV-hTauP301L treatment. Dimethyl fumarate was used as a positive control (DMF). (A) Representative images, AT8 is shown in green and Map2, marker of neurons, is shown in white. […] Compound 1 reduced tau seeding in HEK-293 tau FRET biosensor measured by flow cytometer (C). Tg4510 mouse brain homogenate was used as aggregant stimuli. […] Data represent mean±SEM.
as §1
Example 2.4. Compound 1 reduces levels of pathological hyperphosphorylated tau in primary cultures of neurons expressing human tau protein with P301L mutation. At day 10 after culture, neurons were treated with PBS or AAV-hTauP301L, and thereafter compound 1 (30 μM) was added every other day for 8 days. At the end of the experiment (day 18), neurons were fixed in 2% paraformaldehyde (Sigma-Aldrich) for 15 minutes. Thereafter, hyperphosphorylated tau levels were evaluated by immunofluorescence using AT8 antibody (FIG. 6A). […]

[2] = test system: tau seeding in HEK-293 tau FRET biosensor; assay: Tau seeding assay in HEK-293 tau FRET biosensor (Tg4510 mouse brain homogenate); settings: increasing concentrations
Text: as §2
Tau seeding assay in HEK-293 was evaluated following a previously described protocol [Holmes et al. “Proteopathic tau seeding predicts tauopathy in vivo.” Proceedings of the National Academy of Sciences 2014, 111, E4376-E4385].
In a second set of experiments, HEK-293 FRET biosensor containing tau repeating domains was used to determine if Compound 1 could reduce tau aggregates. For this, cells were treated with Tg4510 mouse brain homogenate as an aggregant stimulus and co-incubated with increasing concentrations of the compound. Compound 1 was able to reduce tau seeding ability following a concentration dependent effect (FIG. 6C).

[3] = test system: Salmonella typhimurium strains, TA98, TA100, TA1535 and TA1537; assay: Ames fluctuation test; settings: 10^−4 to 6.10^−7 M; with and without rat liver S9
Procedure: Example 3.1. ADME-Tox: Genetic Toxicity. The Ames fluctuation test is a widely used bacterial assay for the identification of compounds that can produce gene mutations. Compound 1 was assayed between 10^−4 and 6.10^−7 M in four Salmonella typhimurium strains, TA98, TA100, TA1535 and TA1537, with and without metabolic activation by rat liver S9 (Eurofins Discovery).

[4] = Liver microsome stability, dog; settings: dog liver microsomes
Text: (§3) Example 3.3. Stability in mouse, dog, and human liver microsomes. […] In this line, results in two different species correlated with human microsomes. […] This correlation is widely described for different drugs in which mouse metabolism is higher due to the high blood flow and quick metabolic status of mice.

[5] = Liver microsome stability, mouse; settings: mouse liver microsomes
Text: as §3

[6] = Blood-brain distribution, intravenous and oral administration; settings: for AUClast / Cmax / Tmax: brain, male C57BL/6 mice
Procedure: Example 3.5. Blood-brain distribution studies by intravenous and oral administration. Following a single intravenous at 20 mg/kg and oral at 50 mg/kg dose administration of Compound 1 in male C57BL/6 mice, the brain concentrations were quantifiable up to 4 h (SAI Life Sciences Ltd).

In the case of COc1ccc2c(c1)CC(c1c[nH]c3ccc(OC)cc13)N2 (stereo not drawn), the “mean fluorescence intensity of Iba-1 per cell” value (brain microglia (Iba-1)) is reported as “restored to saline levels”, the “cognitive decline (NOR discrimination index)” value (LPS treated mice) is reported as “did not show cognitive decline” and the AT8 intensity levels [1] is reported as “reduced AT8 intensity levels”. For the same molecule, the tau seeding ability [2] was “able to reduce tau seeding ability following a concentration dependent effect”, the “cytotoxicity in Ames fluctuation test” value [3] was “did not exhibit cytotoxicity” and the “genotoxicity (Ames fluctuation test)” value [3] was “not genotoxic”. The T1/2 [4] was 15.4 min and 15.4 ± 0.03 min, the T1/2 [5] was 3.7 min and 3.7 ± 0.1 min and the “brain concentrations quantifiable up to” value ([6]; IV 20 mg/kg and oral 50 mg/kg) was “up to 4 h”. The AUClast ([6]; IV 20 mg/kg) was 3750.37 ng·h/g, the Cmax ([6]; IV 20 mg/kg) was 9332.44 ng/g and the Tmax ([6]; IV 20 mg/kg) was 4.98 min. For the same molecule, the AUClast ([6]; PO 50 mg/kg) was 2010.59 ng·h/g, the Cmax ([6]; PO 50 mg/kg) was 2211.96 ng/g and the Tmax ([6]; PO 50 mg/kg) was 60 min.
